In PMC9945734 (BMC Medicine, 2023):

Key:
[1] = test system: KLF5, KLF5^K369Q, and KLF5^K369R proteins; experiment: Circular dichroism (CD) analysis; format: binding; details: negative peaks between 205 nm and 220 nm; all three forms of KLF5
Procedure: Wild-type or mutant KLF5 protein in 2 mL PBS at 0.01 mg/mL was analyzed using a CD spectropolarimeter (Chirascan, Applied Photophysics, Surrey, UK) at 200–260 nm. The spectra were recorded in a 1 cm path-length cuvette. An average of three repeated scans were performed on each spectrum. NTZ was added to the protein solution at a final concentration of 1 μM and incubated for 2 h at 4°C before CD detection.

[2] = test system: KLF5, KLF5^K369Q, and KLF5^K369R proteins; experiment: Detection of KLF5-bound NTZ by HPLC

Row | Structure (SMILES) | CD spectrum / secondary structure of KLF5 proteins [1] | binding to KLF5 protein (HPLC) [2]
1 | CC(=O)Oc1ccccc1C(=O)Nc1ncc([N+](=O)[O-])s1 [Nitazoxanide] | decreased the intensity of these negative peaks | binds to the KLF5 protein regardless of KLF5 acetylation status
2 | CC1(C)CCC(C)(C)c2cc(NC(=O)c3ccc(C(=O)O)cc3)ccc21 [Am80] | did not change the secondary structure of KLF5 | –
